{
  "sequences": {"note": "Amino acid sequences for entries named in this document (tags omitted). A change or cut given only in a name is not applied to a line headed by its entry.", "UniProt Q9P0L2": "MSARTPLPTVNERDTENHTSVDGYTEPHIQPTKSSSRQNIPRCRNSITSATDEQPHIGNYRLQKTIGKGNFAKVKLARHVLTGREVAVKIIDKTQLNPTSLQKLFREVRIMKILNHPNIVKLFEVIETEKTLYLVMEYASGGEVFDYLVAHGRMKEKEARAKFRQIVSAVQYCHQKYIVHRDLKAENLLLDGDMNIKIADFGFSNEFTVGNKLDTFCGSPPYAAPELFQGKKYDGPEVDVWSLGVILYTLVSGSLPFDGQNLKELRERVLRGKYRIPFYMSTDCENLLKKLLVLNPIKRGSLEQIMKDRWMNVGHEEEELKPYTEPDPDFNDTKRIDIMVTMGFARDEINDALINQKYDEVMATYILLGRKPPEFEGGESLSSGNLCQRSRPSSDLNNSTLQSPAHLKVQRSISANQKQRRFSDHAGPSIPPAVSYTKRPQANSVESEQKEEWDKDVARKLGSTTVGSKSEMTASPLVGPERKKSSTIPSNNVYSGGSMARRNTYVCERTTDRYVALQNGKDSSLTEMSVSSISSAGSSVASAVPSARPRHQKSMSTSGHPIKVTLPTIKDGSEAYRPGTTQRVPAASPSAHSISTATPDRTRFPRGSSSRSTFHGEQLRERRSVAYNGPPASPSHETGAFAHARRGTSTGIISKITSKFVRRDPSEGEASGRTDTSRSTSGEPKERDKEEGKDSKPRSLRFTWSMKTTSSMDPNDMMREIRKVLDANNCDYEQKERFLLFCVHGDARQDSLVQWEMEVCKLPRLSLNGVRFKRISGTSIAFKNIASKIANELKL"},
  "source": "paper PMC11169557",
  "about": "“The Goldilocks paradigm: comparing classical machine learning, large language models, and few-shot learning for drug discovery applications” (Communications Chemistry, 2024)",
  "target": "MARK1 (Homo sapiens, UniProt Q9P0L2)",
  "test": "MARK1 inhibition, IC50 determination (dose-response) using Z'-LYTE assay",
  "conditions": "hits of the initial screen followed up with dose-response curves; 1 = true MARK1 inhibitor",
  "data": [
    {"compound": "CN(C)C[C@@H]1CCn2cc(c3ccccc32)C2=C(C(=O)NC2=O)c2cn(c3ccccc23)CCO1.Cl", "note": "[ruboxistaurin HCl]", "values": [
      {"measurement": "Active (Measured)", "value": 0}
    ]}
  ]
}
